The values that follow come from patent US20210128736A1, “STEREOCOMPLEX OF OLIGOLACTIC ACID CONJUGATES IN MICELLES FOR IMPROVED PHYSICAL STABILITY AND ENHANCED ANTITUMOR EFFICACY” (Wisconsin Alumni Research Foundation, priority 2018, published 2021).

The conditions of the series: for Stability: loaded PEG-b-PLA micelles, 1.0 mg prodrug and 10.0 mg PEG4000-b-PLA2200, dispersed in MilliQ water at 25° C.; for physical stability: time to drug precipitation: loaded within PEG-b-PLA micelles.

As to “oligo(L-lactic acid)-gemcitabine [o(LLA)6-GEM]”, the “Stability” value is on record as <24 h and the “physical stability: time to drug precipitation” value was < 24 h.
Turning to “oligo(L-lactic acid)-gemcitabine [o(LLA)10-GEM]”, the “Stability” value is <1 h and the “physical stability: time to drug precipitation” value was < 1 h.
